From patent US20080308744A1, “Serum Albumin Conjugated to Fluorescent Substances for Imaging” (Beth Israel Deaconess Medical Center, priority 2003, published 2008)

Legend:
[1] = Fluorescence spectrometry: relative fluorescent yield of 800 nm contrast agents; assay type: physicochemical; settings: same concentration (1 μM) of the molecule, FIG. 13B
Source text: (§1) The optical and physical properties of disulfonated indocyanine green (ICG, 775 Da), 800CW, 962 Da, ICG non-covalently associated with albumin (ICGHSA, 67 KDa), CW800-labeled human serum albumin (HSA800, 70 KDa), and CW800-labeled albumin nanocolloid (colHSA800, 7 MDa) were characterized in terms of optimal labeling ratio, relative fluorescent yield, hydrodynamic diameter, estimated net charge and excitation/emission wavelength maximum, and compared them to QDs (440 KDa). The performance of these agents in rat and pig model systems of SLN mapping for the skin, gastrointestinal tract and lung were also quantitated.
All of the samples were diluted with PBS, pH7.8, or with 100% FBS according to absorbance at λmax using 1-cm path length quartz spectrometer cell, and excited at 770 nm. Fluorescence was measured by calculating the area under the curve of the intensity from 785 nm to 950 nm subtracting the fluorescence of control PBS, pH 7.8.

[2] = Quantum yield measurements; assay type: physicochemical; settings: compared to QD
Method: Quantum yields of ICG, CW800, ICGHSA (mixture of same moles of ICG and HSA), HSA800, QDs and colHSA800 were measured in solution in PBS, pH 7.8 or in 100% FBS, by comparison to ICG in DMSO as a control (13%) under condition of matched fluorophore absorbance.

[3] = Physical and optical properties: net charge, extinction coefficient; assay type: physicochemical; settings: pH 7.4
Source text: as §1

sentinel lymph node = test: Intraoperative near-infrared fluorescent sentinel lymph node mapping; assay type: in vivo, pig
Method: Animal protocols were in accordance with Institutional Animal Care and Use Committee Guidelines. Adult male Sprague Yorkshire pigs of 35 kg were used. After anesthesia, 100 μL of 10 μM (1 nmol) HSA800, CW800, ICG, ICGHSA, 4 μM colHSA800 or 0.4 μM QDs in PBS, pH7.8 were injected into the thigh intradermally, and into the parenchyma of the intestine and lung, and werewas monitored in real time with the NIR fluorescence imaging system.
In order to verify the availability of those contrast agents in vivo, we operated sentinel lymph node (SLN) mapping to the pig. […] Although the inguinal lymph nodes are located under the subdermal tissue, we could easily identify the SLN with NIR guidance. […] Compared to other organic agents, certain amount of HSA800 injected entered the lymphatic channel and stayed bright for more than 1 hour.

[4] = tested on: retroperitoneal lymph nodes; test: Lymph node mapping after injection into the groin area; assay type: in vivo, rat; settings: after 1 hour, 5 nmol into the groin area

HSA800: CW800-labeled human serum albumin, 70 KDa
total fluorescence per molecule [1]: highest total fluorescence per molecule
quantum yield ([2]; in FBS): rather higher
quantum yield ([2]; in PBS): same as that of QD
net charge [3]: more negatively charged
time agent stayed bright in the lymphatic channel (sentinel lymph node; intestine, injected into parenchyma): more than 1 hour
lymphatic channels and SLN visualised (sentinel lymph node; skin, 100 μL of 10 μM intradermally in thigh): ultra-fine lymphatic channels flowing to a single SLN immediately after the injection
performance in SLN mapping (fluorescent yield, lymphatic access, SLN retention, image guidance) (sentinel lymph node; skin, intestine and lung): best performance of the organic contrast agents

NIR albumin: albumin covalently labeled with IRDye78 by reaction with its N-hydroxysuccinimide ester
signal in the kidney or bladder (stability of conjugate) [4]: virtually no signal

albumin: human serum albumin, unlabeled
net charge [3]: −18
